Laboratory results as given in patent US8088387B2, “Method of targeting specific cell populations using cell-binding agent maytansinoid conjugates linked via a non-cleavable linker, said conjugates, and methods of making said conjugates” (Immunogen Inc., priority 2003, dated 2012).

Legend:
[1] = in vitro clonogenic / indirect cytotoxicity assays, cell line not given; type: cell-based
Source text: Cell-binding agent maytansinoid conjugates of the invention can be evaluated for their ability to suppress proliferation of various cell lines in vitro. For example, cell lines such as the human colon carcinoma line COLO205, the human melanoma cell line A375, the human myeloid leukemia cell line HL60, the human breast carcinoma line SKBR3, or the human epidermoid carcinoma cell line KB can be used for the assessment of cytotoxicity of these conjugates. Cells to be evaluated can be exposed to the compounds for 24 hours and the surviving fractions of cells measured in direct assays by known methods. (See, e.g. Goldmacher et al., 135 J. Immunol. 3648-3651 (1985), and Goldmacher et al., 102 J. Cell Biol. 1312-1319 (1986).) IC50 values can then be calculated from the results of the assays.
Further, a trastuzumab conjugate of DM1 synthesized with SIAB was also cytotoxic in clonogenic assays (FIG. 28).

[2] = system: MCF-7 breast carcinoma cell line xenograft; experiment: MCF-7 breast carcinoma xenograft model in mice; type: in vivo, SCID mice; settings: FIG. 10C
Method: Antibody conjugates with DM1 using the SMCC linker show anti-tumor efficacy against human tumor xenografts in mice (FIGS. 10A-C). […] In this experiment, one group of five animals bearing established subcutaneous tumors was treated with huC242-SMCC-DM1 at a dose of 150 μg/kg of conjugated DM1. Tumor sizes were measured periodically and graphed vs. time after tumor inoculation. […] In this experiment, three groups of five animals each bearing established subcutaneous SNU tumors were treated with huC242-SMCC-DM1 at doses of 15 μg/kg, 30 μg/kg, and 60 μg/kg of conjugated DM1, respectively. Tumor sizes were measured periodically and graphed vs. time after tumor inoculation.

With “trastuzumab-SIAB-DM1: trastuzumab antibody linked to DM1 via the non-cleavable crosslinker SIAB” the “cytotoxicity in clonogenic assays in vitro” value ([1]; FIGS. 9, 22, 28) was “cytotoxic”.

With “trastuzumab-SMCC-DM1: trastuzumab antibody linked to DM1 via the non-cleavable cross-linking reagent SMCC” the tumor response [2] was “significant tumor regression” and the “specific activity in vitro” value ([1]; FIGS. 8A-D and 25) was “Specific activity”.
